Earlier results on eight molecules are cited in patent US20230154571A1, “METHOD AND DEVICE FOR SELECTING A SUBASSEMBLY OF MOLECULES FOR USE IN PREDICTING AT LEAST ONE PROPERTY OF A MOLECULAR STRUCTURE” (published 2023).

The subject of the series is different bacterial cultures. Particulars: for Exp. data: Annex 2, AMES mutagenicity test, different categories of molecules; for Experimental data: Annex 1, AMES mutagenicity test, load molecules, data validated at the level of the European authorities.

Some compounds may have been tested in ways that are not shown here.

Regarding styphnic scid, the Exp. data result was “−”.

Regarding ammonium nitrate, the Exp. data result is “−”.

Regarding `O=[N+]([O-])c1cc([N+](=O)[O-])cc([N+](=O)[O-])c1`, the Exp. data entry is “+”.

In the case of `O=[N+]([O-])c1cc([N+](=O)[O-])c(O)c([N+](=O)[O-])c1`, the Experimental data result is listed as “+” and the Exp. data entry is given as “+”.

Take Ammonium dinitramide: the Exp. data result is recorded as “+”.

For Tetryl, the Experimental data entry was “+” and the Exp. data result was “+”.

Take Dinitroanisole: the Experimental data entry is listed as “+” and the Exp. data entry is “+”.

Turning to ammonium perchlorate, the Exp. data result was “−”.
